Cyclic peptide permeability, from CycPeptMPDB

Data: CycPeptMPDB; original report Kelly et al. 2021, doi:10.1021/jacs.0c06115.

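The data file gives no further conditions (lipid, pH, time, direction or concentration), and values from different papers need not be comparable. The list need not hold all peptides of the study. Entries at the database's floor value (log10 P of -10) are not listed.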

PAMPA measures passive passage through an artificial lipid membrane.
MDCK: transport across canine kidney epithelial cells.
Permeability is in 10^-6 cm/s, converted from the database's log10 values; higher is more permeable.

CC(=O)N1CCC[C@@H]1C(=O)N(C)[C@H](CC(C)C)C(=O)N[C@@H]1C(=O)N[C@H](CC(C)C)C(=O)N[C@H](CC(C)C)C(=O)N(C)[C@H](CC(C)C)C(=O)N(C)[C@H](C)C(=O)N[C@H](CC(C)C)C(=O)N2CCC[C@@H]2C(=O)O[C@@H]1C has PAMPA 0.83 × 10^-6 cm/s.
CC(=O)N1CCC[C@H]1C(=O)N(C)[C@@H](CC(C)C)C(=O)N[C@@H]1C(=O)N(C)[C@@H](CC(C)C)C(=O)N(C)[C@@H](CC(C)C)C(=O)N[C@@H](CC(C)C)C(=O)N[C@@H](C)C(=O)N[C@H](CC(C)C)C(=O)N2CCC[C@H]2C(=O)O[C@@H]1C has PAMPA 0.055 × 10^-6 cm/s.
CC(=O)N1CCC[C@@H]1C(=O)N(C)[C@H](CC(C)C)C(=O)N[C@@H]1C(=O)N[C@@H](CC(C)C)C(=O)N[C@H](CC(C)C)C(=O)N[C@H](CC(C)C)C(=O)N(C)[C@@H](C)C(=O)N[C@H](CC(C)C)C(=O)N2CCC[C@H]2C(=O)O[C@@H]1C has PAMPA 0.078 × 10^-6 cm/s.
CC(=O)N1CCC[C@@H]1C(=O)N(C)[C@H](CC(C)C)C(=O)N[C@@H]1C(=O)N(C)[C@H](CC(C)C)C(=O)N(C)[C@@H](CC(C)C)C(=O)N(C)[C@H](CC(C)C)C(=O)N(C)[C@@H](C)C(=O)N[C@H](CC(C)C)C(=O)N2CCC[C@@H]2C(=O)O[C@@H]1C has PAMPA 7.8 × 10^-6 cm/s.
CC(=O)N1CCC[C@H]1C(=O)N(C)[C@H](CC(C)C)C(=O)N[C@@H]1C(=O)N[C@H](CC(C)C)C(=O)N[C@H](CC(C)C)C(=O)N(C)[C@H](CC(C)C)C(=O)N(C)[C@@H](C)C(=O)N[C@H](CC(C)C)C(=O)N2CCC[C@H]2C(=O)O[C@@H]1C has PAMPA 4.8 × 10^-6 cm/s.
CC(=O)N1CCC[C@@H]1C(=O)N(C)[C@@H](CC(C)C)C(=O)N[C@@H]1C(=O)N[C@H](CC(C)C)C(=O)N[C@H](CC(C)C)C(=O)N[C@H](CC(C)C)C(=O)N[C@@H](C)C(=O)N[C@H](CC(C)C)C(=O)N2CCC[C@H]2C(=O)O[C@@H]1C has PAMPA 0.23 × 10^-6 cm/s.
CC(=O)N1CCC[C@@H]1C(=O)N(C)[C@@H](CC(C)C)C(=O)N[C@@H]1C(=O)N[C@H](CC(C)C)C(=O)N[C@H](CC(C)C)C(=O)N(C)[C@H](CC(C)C)C(=O)N(C)[C@@H](C)C(=O)N[C@H](CC(C)C)C(=O)N2CCC[C@H]2C(=O)O[C@@H]1C has PAMPA 1.7 × 10^-6 cm/s.
CC(=O)N1CCC[C@@H]1C(=O)N(C)[C@@H](CC(C)C)C(=O)N[C@@H]1C(=O)N[C@H](CC(C)C)C(=O)N[C@H](CC(C)C)C(=O)N(C)[C@@H](CC(C)C)C(=O)N(C)[C@H](C)C(=O)N[C@H](CC(C)C)C(=O)N2CCC[C@H]2C(=O)O[C@@H]1C has PAMPA 2.3 × 10^-6 cm/s.
CC(=O)N1CCC[C@@H]1C(=O)N(C)[C@H](CC(C)C)C(=O)N[C@@H]1C(=O)N[C@H](CC(C)C)C(=O)N(C)[C@H](CC(C)C)C(=O)N[C@H](CC(C)C)C(=O)N[C@H](C)C(=O)N[C@H](CC(C)C)C(=O)N2CCC[C@@H]2C(=O)O[C@@H]1C has PAMPA 0.071 × 10^-6 cm/s.
CC(=O)N1CCC[C@@H]1C(=O)N(C)[C@H](CC(C)C)C(=O)N[C@@H]1C(=O)N(C)[C@@H](CC(C)C)C(=O)N(C)[C@H](CC(C)C)C(=O)N(C)[C@H](CC(C)C)C(=O)N(C)[C@H](C)C(=O)N[C@H](CC(C)C)C(=O)N2CCC[C@@H]2C(=O)O[C@@H]1C has PAMPA 5.2 × 10^-6 cm/s.
CC(=O)N1CCC[C@@H]1C(=O)N(C)[C@H](CC(C)C)C(=O)N[C@@H]1C(=O)N(C)[C@@H](CC(C)C)C(=O)N(C)[C@@H](CC(C)C)C(=O)N[C@H](CC(C)C)C(=O)N(C)[C@H](C)C(=O)N[C@H](CC(C)C)C(=O)N2CCC[C@@H]2C(=O)O[C@@H]1C has PAMPA 2.3 × 10^-6 cm/s.
CC(=O)N[C@@H]1C(=O)N2CCC[C@H]2C(=O)N(C)[C@H](CC(C)C)C(=O)N(C)[C@H](CC(C)C)C(=O)N(C)[C@@H](CC(C)C)C(=O)N(C)[C@H](CC(C)C)C(=O)N(C)[C@H](C)C(=O)N[C@@H](CC(C)C)C(=O)N2CCC[C@@H]2C(=O)O[C@@H]1C has PAMPA 5.1 × 10^-6 cm/s.
CC(=O)N1CCC[C@H]1C(=O)N(C)[C@H](CC(C)C)C(=O)N[C@@H]1C(=O)N(C)[C@H](CC(C)C)C(=O)N[C@H](CC(C)C)C(=O)N[C@H](CC(C)C)C(=O)N[C@H](C)C(=O)N[C@H](CC(C)C)C(=O)N2CCC[C@H]2C(=O)O[C@@H]1C has PAMPA 0.63 × 10^-6 cm/s.
CC(=O)N1CCC[C@H]1C(=O)N(C)[C@@H](CC(C)C)C(=O)N[C@@H]1C(=O)N(C)[C@H](CC(C)C)C(=O)N(C)[C@@H](CC(C)C)C(=O)N[C@@H](CC(C)C)C(=O)N(C)[C@@H](C)C(=O)N[C@H](CC(C)C)C(=O)N2CCC[C@@H]2C(=O)O[C@@H]1C has PAMPA 8.7 × 10^-6 cm/s and MDCK 26 × 10^-6 cm/s.
CC(=O)N1CCC[C@@H]1C(=O)N(C)[C@@H](CC(C)C)C(=O)N[C@@H]1C(=O)N(C)[C@H](CC(C)C)C(=O)N(C)[C@H](CC(C)C)C(=O)N[C@H](CC(C)C)C(=O)N(C)[C@H](C)C(=O)N[C@@H](CC(C)C)C(=O)N2CCC[C@@H]2C(=O)O[C@@H]1C has PAMPA 8.1 × 10^-6 cm/s.
CC(=O)N1CCC[C@H]1C(=O)N(C)[C@H](CC(C)C)C(=O)N[C@@H]1C(=O)N[C@@H](CC(C)C)C(=O)N[C@H](CC(C)C)C(=O)N(C)[C@H](CC(C)C)C(=O)N(C)[C@@H](C)C(=O)N[C@@H](CC(C)C)C(=O)N2CCC[C@@H]2C(=O)O[C@@H]1C has PAMPA 4.8 × 10^-6 cm/s.
CC(=O)N1CCC[C@H]1C(=O)N[C@@H]1C(=O)N[C@H](CC(C)C)C(=O)N[C@@H](CC(C)C)C(=O)N[C@@H](CC(C)C)C(=O)N(C)[C@@H](CC(C)C)C(=O)N[C@H](C)C(=O)N[C@@H](CC(C)C)C(=O)N2CCC[C@@H]2C(=O)O[C@@H]1C has PAMPA 0.34 × 10^-6 cm/s.
CC(=O)N1CCC[C@H]1C(=O)N(C)[C@H](CC(C)C)C(=O)N[C@@H]1C(=O)N(C)[C@@H](CC(C)C)C(=O)N[C@@H](CC(C)C)C(=O)N[C@H](CC(C)C)C(=O)N[C@@H](C)C(=O)N[C@H](CC(C)C)C(=O)N2CCC[C@@H]2C(=O)O[C@@H]1C has PAMPA 0.13 × 10^-6 cm/s.
CC(=O)N1CCC[C@H]1C(=O)N(C)[C@@H](CC(C)C)C(=O)N[C@@H]1C(=O)N[C@@H](CC(C)C)C(=O)N[C@H](CC(C)C)C(=O)N(C)[C@H](CC(C)C)C(=O)N(C)[C@@H](C)C(=O)N[C@@H](CC(C)C)C(=O)N2CCC[C@@H]2C(=O)O[C@@H]1C has PAMPA 1.1 × 10^-6 cm/s.
CC(=O)N1CCC[C@H]1C(=O)N(C)[C@H](CC(C)C)C(=O)N[C@@H]1C(=O)N[C@@H](CC(C)C)C(=O)N[C@@H](CC(C)C)C(=O)N[C@@H](CC(C)C)C(=O)N(C)[C@@H](C)C(=O)N[C@@H](CC(C)C)C(=O)N2CCC[C@H]2C(=O)O[C@@H]1C has PAMPA 0.22 × 10^-6 cm/s.
CC(=O)N1CCC[C@H]1C(=O)N(C)[C@H](CC(C)C)C(=O)N[C@@H]1C(=O)N[C@@H](CC(C)C)C(=O)N(C)[C@H](CC(C)C)C(=O)N[C@@H](CC(C)C)C(=O)N(C)[C@H](C)C(=O)N[C@@H](CC(C)C)C(=O)N2CCC[C@H]2C(=O)O[C@@H]1C has PAMPA 1.3 × 10^-6 cm/s.

Excerpt, the final 2 entries:

The entry for CC(=O)N1CCC[C@H]1C(=O)N(C)[C@H](CC(C)C)C(=O)N[C@@H]1C(=O)N[C@@H](CC(C)C)C(=O)N[C@@H](CC(C)C)C(=O)N[C@@H](CC(C)C)C(=O)N(C)[C@@H](C)C(=O)N[C@@H](CC(C)C)C(=O)N2CCC[C@H]2C(=O)O[C@@H]1C lists PAMPA 0.22 × 10^-6 cm/s.
The entry for CC(=O)N1CCC[C@H]1C(=O)N(C)[C@H](CC(C)C)C(=O)N[C@@H]1C(=O)N[C@@H](CC(C)C)C(=O)N(C)[C@H](CC(C)C)C(=O)N[C@@H](CC(C)C)C(=O)N(C)[C@H](C)C(=O)N[C@@H](CC(C)C)C(=O)N2CCC[C@H]2C(=O)O[C@@H]1C lists PAMPA 1.3 × 10^-6 cm/s.